Test results reported in ChEMBL document CHEMBL1133676, “Synthesis and hypolipidemic and antiplatelet activities of alpha-asarone isomers in humans (in vitro), mice (in vivo), and rats (in vivo)” (2000).

Key:
[1] = Ratio of LDL cholesterol level to HDL cholesterol level; assay type: functional
[2] = Atherogenic index is expressed as (total cholesterol-LDL/HDL); assay type: functional

| SMILES | Ratio [1] | Atherogenic index [2] |
| --- | --- | --- |
| C/C=C/c1c(OC)ccc(OC)c1OC.CC(C)CCC[C@@H](C)[C@H]1CC[C@H]2[C@@H]3CC=C4C[C@@H](O)CC[C@]4(C)[C@H]3CC[C@]12C | 1.59 | 2.8 |
| C/C=C/c1c(OC)cc(OC)cc1OC.CC(C)CCC[C@@H](C)[C@H]1CC[C@H]2[C@@H]3CC=C4C[C@@H](O)CC[C@]4(C)[C@H]3CC[C@]12C | 0.97 | 1.58 |
| C/C=C/c1cc(OC)c(OC)c(OC)c1.CC(C)CCC[C@@H](C)[C@H]1CC[C@H]2[C@@H]3CC=C4C[C@@H](O)CC[C@]4(C)[C@H]3CC[C@]12C | 0.44 | 1.06 |
| C/C=C/c1cc(OC)c(OC)cc1OC.CC(C)CCC[C@@H](C)[C@H]1CC[C@H]2[C@@H]3CC=C4C[C@@H](O)CC[C@]4(C)[C@H]3CC[C@]12C | 0.54 | 1.45 |
| C/C=C/c1ccc(OC)c(OC)c1OC.CC(C)CCC[C@@H](C)[C@H]1CC[C@H]2[C@@H]3CC=C4C[C@@H](O)CC[C@]4(C)[C@H]3CC[C@]12C | 0.7 | 1.26 |
| CC(C)CCC[C@@H](C)[C@H]1CC[C@H]2[C@@H]3CC=C4C[C@@H](O)CC[C@]4(C)[C@H]3CC[C@]12C | 1.49 | 2.82 |
| CC(C)CCC[C@@H](C)[C@H]1CC[C@H]2[C@@H]3CC=C4C[C@@H](O)CC[C@]4(C)[C@H]3CC[C@]12C.CCOC(=O)C(C)(C)Oc1ccc(Cl)cc1 | 2.08 | 2.87 |
| C/C=C/c1cc(OC)cc(OC)c1OC.CC(C)CCC[C@@H](C)[C@H]1CC[C@H]2[C@@H]3CC=C4C[C@@H](O)CC[C@]4(C)[C@H]3CC[C@]12C | 0.91 | 1.5 |
